Target: calcineurin (CN) heterodimer, wild type: N-terminally 6-His-tagged human calcineurin A truncated at residue 400 with the calcineurin B subunit, Q08209;P63098
Experiment: MRBLE-pep (peptides on spectrally encoded beads)
Conditions: parent: est. 0.0 kcal/mol; read off a plot

Substance | ddG [kcal/mol]
PKIVIT peptide (PVIVIT scaffold with V2K) V4R | 0.15
PKIVIT peptide (PVIVIT scaffold with V2K) V4I | -0.15
